scFv variants of Ab-14 (light chain) against a SARS-CoV-2 spike peptide

The measurements come from Li et al. 2023 (doi:10.1038/s41467-023-39022-2) through the FLAb antibody collection.

Target: peptide PDVDLGDISGINAS, taken from heptad repeat 2 (HR2) of SARS-CoV-2 spike.

Parent: Ab-14, a human scFv built as VH, a (GGGGS)3 linker, VL. Only the CDRs of the light chain vary.
VH: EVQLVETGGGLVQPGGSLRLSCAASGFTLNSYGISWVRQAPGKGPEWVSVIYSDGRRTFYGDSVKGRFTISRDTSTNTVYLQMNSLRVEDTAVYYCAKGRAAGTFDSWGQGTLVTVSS
VL: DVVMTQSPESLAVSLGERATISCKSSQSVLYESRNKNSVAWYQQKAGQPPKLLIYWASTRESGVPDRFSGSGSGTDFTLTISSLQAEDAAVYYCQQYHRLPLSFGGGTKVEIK

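The parent was found by panning a naive human phage display library on the peptide. Designed CDR sequences, proposed from the first random library and measured here. Several design methods are mixed in this list. In AlphaSeq, yeast of one mating type display the scFv and yeast of the other type display the target. Mating (16 h, 30 °C) was followed by selection of diploids and sequencing of their barcodes. Scores were corrected for input abundance and mapped to Kd with protein pairs of known affinity run in the same pool. Mating was done six times.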

Each variant's VL is given in full. The read-out is the apparent dissociation constant on a log10 scale (nM): the lower, the stronger. A mean of the replicates is given; it leaves out those without a signal. "nd" means that the variant was in the library but no mating with the target was seen in any replicate; the authors take this as a sign of poor binding, and no number exists. Three control strains display no target. For all light chain designs, 4% of the pairings with them gave a signal, with a median of 2.64 and one signal in twenty below 1.59, so weak values seen in few replicates may be background. Also given: how often the same scFv was detected with the empty control strains. Values of this round are not directly comparable with the first-round values of the same sequences. In the paper, a design with two or fewer of six values counts as a poor binder.

| # | VL | mean log10 Kd (nM) | replicates with signal | control signals |
|---|---|---|---|---|
| 1 | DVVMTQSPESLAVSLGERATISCKLSQADWYESRNKNSVAWYQQKAGQPPKLLIYEASLRESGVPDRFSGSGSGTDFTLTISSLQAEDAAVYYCQQYHRLPLSFGGGTKVEIK | -0.05 | 6/6 | 1/18 |
| 2 | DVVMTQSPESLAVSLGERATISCKSSQSVALESRNANSVAWYQQKAGQPPKLLIYDASTRESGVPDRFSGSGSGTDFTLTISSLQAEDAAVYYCQQYHRLPLSFGGGTKVEIK | -0.18 | 6/6 | 1/18 |
| 3 | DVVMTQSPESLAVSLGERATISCKVSDSMAFLQRNRNSVAWYQQKAGQPPKLLIYDNSTRGSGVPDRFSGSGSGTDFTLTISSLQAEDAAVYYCQQYHRLPLSFGGGTKVEIK | 0.31 | 6/6 | 0/18 |
| 4 | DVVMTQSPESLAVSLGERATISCKSSISQLYESRNTNSVAWYQQKAGQPPKLLIYEASTRESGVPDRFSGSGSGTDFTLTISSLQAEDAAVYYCQQYHRLPLSFGGGTKVEIK | 0.21 | 6/6 | 1/18 |
| 5 | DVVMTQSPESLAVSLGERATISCKISQMFNVGTKNTNSLAWYQQKAGQPPKLLIYEMNTRGGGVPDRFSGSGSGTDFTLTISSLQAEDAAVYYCQDYHRLPLSFGGGTKVEIK | 1.46 | 6/6 | 2/18 |
| 6 | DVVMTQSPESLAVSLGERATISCKSSQSVLYDSRNKNSVAWYQQKAGQPPKLLIYDASTRESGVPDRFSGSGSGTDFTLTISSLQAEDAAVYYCQHYHRLPLSFGGGTKVEIK | 0.40 | 6/6 | 1/18 |
| 7 | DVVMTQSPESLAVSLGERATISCTISGLANYESTNKNSVAWYQQKAGQPPKLLIYELTMRGQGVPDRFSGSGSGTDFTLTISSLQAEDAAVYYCQQYERLPLSFGGGTKVEIK | 0.76 | 6/6 | 0/18 |
| 8 | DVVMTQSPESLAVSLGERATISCKSSQSVLYESRNHNSVAWYQQKAGQPPKLLIYWDSTRESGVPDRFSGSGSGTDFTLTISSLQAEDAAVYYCQQYHRLPLSFGGGTKVEIK | 3.87 | 1/6 | 0/18 |
| 9 | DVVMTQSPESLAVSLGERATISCKLSNSYEYQSRNMNSVAWYQQKAGQPPKLLIYNASTRLEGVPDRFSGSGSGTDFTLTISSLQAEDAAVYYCQQYHRLPLSFGGGTKVEIK | 0.40 | 6/6 | 2/18 |
| 10 | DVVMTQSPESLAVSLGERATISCKSSQSVLYEDNNKNSVAWYQQKAGQPPKLLIYDASTRELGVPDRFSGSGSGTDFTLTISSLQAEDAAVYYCQQYHRLPLSFGGGTKVEIK | -0.01 | 6/6 | 0/18 |
| 11 | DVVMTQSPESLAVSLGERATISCMVYEATMMGGTARNSIAWYQQKAGQPPKLLIYNAQMRPDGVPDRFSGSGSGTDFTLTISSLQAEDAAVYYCQQYHRLPLIFGGGTKVEIK | 0.36 | 6/6 | 0/18 |
| 12 | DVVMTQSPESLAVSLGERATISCKSSISKLYESGNKNSVAWYQQKAGQPPKLLIYEASTRESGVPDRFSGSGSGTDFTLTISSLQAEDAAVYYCQQYHRLPLSFGGGTKVEIK | 0.25 | 6/6 | 0/18 |
| 13 | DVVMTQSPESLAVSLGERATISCKISQSVDYEDRNKNSVAWYQQKAGQPPKLLIYNASTRESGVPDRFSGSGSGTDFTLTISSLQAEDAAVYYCQQYHRLPLSFGGGTKVEIK | 0.44 | 6/6 | 0/18 |
| 14 | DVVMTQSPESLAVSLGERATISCKLLQNVMTEGKNRNNVAWYQQKAGQPPKLLIYHMTMREQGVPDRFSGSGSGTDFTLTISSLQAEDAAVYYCQQYWRLPLSFGGGTKVEIK | 0.17 | 6/6 | 0/18 |
| 15 | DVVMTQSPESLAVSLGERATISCKSGFGVLYESRNKNSVAWYQQKAGQPPKLLIYGASTRESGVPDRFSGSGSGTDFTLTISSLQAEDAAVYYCQQYHRLPLSFGGGTKVEIK | 0.50 | 6/6 | 1/18 |
| 16 | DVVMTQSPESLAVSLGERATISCKLSQSQLYESRNKNSVAWYQQKAGQPPKLLIYNASQRESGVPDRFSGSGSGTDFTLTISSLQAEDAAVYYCQQYHRLPLSFGGGTKVEIK | 0.00 | 6/6 | 1/18 |
| 17 | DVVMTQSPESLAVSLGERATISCKVSQSVLMQSRNKNSVAWYQQKAGQPPKLLIYEASTRESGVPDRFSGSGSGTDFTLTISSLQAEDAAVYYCQQYHRLPLSFGGGTKVEIK | 1.72 | 5/6 | 0/18 |
| 18 | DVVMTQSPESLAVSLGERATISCIVSQLMIWGMHHKNSIAWYQQKAGQPPKLLIYEAQTRVNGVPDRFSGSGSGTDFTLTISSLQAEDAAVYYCQQYDRLPLFFGGGTKVEIK | 0.18 | 6/6 | 2/18 |
| 19 | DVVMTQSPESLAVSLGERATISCKSSQSVLYESRNKNSVAWYQQKAGQPPKLLIYWASTRESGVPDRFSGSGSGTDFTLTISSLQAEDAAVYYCQFYHRLPLSFGGGTKVEIK | 2.72 | 4/6 | 0/18 |
| 20 | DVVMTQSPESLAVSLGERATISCTLYGLSVSMSKNVNNVAWYQQKAGQPPKLLIYEMTTREKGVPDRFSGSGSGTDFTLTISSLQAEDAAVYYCQQYDRLPLIFGGGTKVEIK | 0.71 | 6/6 | 0/18 |
| 21 | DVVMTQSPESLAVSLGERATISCHMSAVTLGGTRARNSVAWYQQKAGQPPKLLIYQMTTRENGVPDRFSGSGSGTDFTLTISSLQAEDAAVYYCQQYDRLPLSFGGGTKVEIK | 1.57 | 6/6 | 1/18 |
| 22 | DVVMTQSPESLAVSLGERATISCMLMQSVLYESRNKNSVAWYQQKAGQPPKLLIYHASLREDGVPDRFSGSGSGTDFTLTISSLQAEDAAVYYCQQYHRLPLSFGGGTKVEIK | nd | 0/6 | 1/18 |
| 23 | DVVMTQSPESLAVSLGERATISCKVMQSMLYESRNKNSVAWYQQKAGQPPKLLIYHASTREQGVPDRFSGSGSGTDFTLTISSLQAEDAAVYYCQQYHRLPLQFGGGTKVEIK | -0.02 | 6/6 | 1/18 |
| 24 | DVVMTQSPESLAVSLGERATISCQFEDIKMKGNDFGDSVAWYQQKAGQPPKLLIYETNARYAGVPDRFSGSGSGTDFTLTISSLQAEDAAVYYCQQYFRLPLAFGGGTKVEIK | 0.73 | 6/6 | 0/18 |

Repeated from above, the 2 best binders with a signal in all replicates:

| VL | mean log10 Kd (nM) | replicates with signal | control signals |
|---|---|---|---|
| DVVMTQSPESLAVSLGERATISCKSSQSVALESRNANSVAWYQQKAGQPPKLLIYDASTRESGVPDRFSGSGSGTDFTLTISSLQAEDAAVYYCQQYHRLPLSFGGGTKVEIK | -0.18 | 6/6 | 1/18 |
| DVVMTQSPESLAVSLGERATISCKLSQADWYESRNKNSVAWYQQKAGQPPKLLIYEASLRESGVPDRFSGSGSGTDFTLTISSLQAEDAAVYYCQQYHRLPLSFGGGTKVEIK | -0.05 | 6/6 | 1/18 |